Test results published in patent publication US5886026A, “Anti-angiogenic compositions and methods of use” (priority 1994, dated 1999).

How the values were obtained:
[1] = Encapsulation of paclitaxel or baccatin in ELVAX:poly-l-lactic acid microspheres; assay type: physicochemical; conditions: for amount encapsulated: from 500 μg
Procedure: Microspheres are then prepared in a dissolution machine (Six-spindle dissolution tester, VanderKanp, Van Kell Industries Inc., U.S.A.) in triplicate at 200 rpm, 42° C., for 3 hours. Microspheres so prepared are washed twice in water and sized on the microscope.

[2] = Release from ELVAX:poly-l-lactic acid microspheres, 18 hours tumbling at 37° C.; assay type: physicochemical

For baccatin, the “encapsulated, % by weight of the polymer” value ([1]; fluorescence) was 1.7%, the “encapsulated, % of original weight” value ([1]; fluorescence) was 17% and the amount encapsulated ([1]; fluorescence, baccatin) was 83 ± 231 g. For the same substance, the “encapsulated, % by weight of the polymer” value ([1]; uv/vis) was 2%, the “encapsulated, % of original weight” value ([1]; uv/vis) was 20% and the amount encapsulated ([1]; uv/vis) was 0.0001 ± 1.5e-05 g. The “released from the microspheres” value ([2]; fluorescence) was 60% and the “released from the microspheres” value ([2]; uv/vis) was 55%.
